Test results: publication PMC9218946, “Identification of a Subtype-Selective Allosteric Inhibitor of GluN1/GluN3 NMDA Receptors” (Frontiers in Pharmacology, 2022)

Protein sequences, listed by entry. Tags and fused reporters are not part of them. Residues count along the entry.
UniProt Q9R1M7, 24-1135: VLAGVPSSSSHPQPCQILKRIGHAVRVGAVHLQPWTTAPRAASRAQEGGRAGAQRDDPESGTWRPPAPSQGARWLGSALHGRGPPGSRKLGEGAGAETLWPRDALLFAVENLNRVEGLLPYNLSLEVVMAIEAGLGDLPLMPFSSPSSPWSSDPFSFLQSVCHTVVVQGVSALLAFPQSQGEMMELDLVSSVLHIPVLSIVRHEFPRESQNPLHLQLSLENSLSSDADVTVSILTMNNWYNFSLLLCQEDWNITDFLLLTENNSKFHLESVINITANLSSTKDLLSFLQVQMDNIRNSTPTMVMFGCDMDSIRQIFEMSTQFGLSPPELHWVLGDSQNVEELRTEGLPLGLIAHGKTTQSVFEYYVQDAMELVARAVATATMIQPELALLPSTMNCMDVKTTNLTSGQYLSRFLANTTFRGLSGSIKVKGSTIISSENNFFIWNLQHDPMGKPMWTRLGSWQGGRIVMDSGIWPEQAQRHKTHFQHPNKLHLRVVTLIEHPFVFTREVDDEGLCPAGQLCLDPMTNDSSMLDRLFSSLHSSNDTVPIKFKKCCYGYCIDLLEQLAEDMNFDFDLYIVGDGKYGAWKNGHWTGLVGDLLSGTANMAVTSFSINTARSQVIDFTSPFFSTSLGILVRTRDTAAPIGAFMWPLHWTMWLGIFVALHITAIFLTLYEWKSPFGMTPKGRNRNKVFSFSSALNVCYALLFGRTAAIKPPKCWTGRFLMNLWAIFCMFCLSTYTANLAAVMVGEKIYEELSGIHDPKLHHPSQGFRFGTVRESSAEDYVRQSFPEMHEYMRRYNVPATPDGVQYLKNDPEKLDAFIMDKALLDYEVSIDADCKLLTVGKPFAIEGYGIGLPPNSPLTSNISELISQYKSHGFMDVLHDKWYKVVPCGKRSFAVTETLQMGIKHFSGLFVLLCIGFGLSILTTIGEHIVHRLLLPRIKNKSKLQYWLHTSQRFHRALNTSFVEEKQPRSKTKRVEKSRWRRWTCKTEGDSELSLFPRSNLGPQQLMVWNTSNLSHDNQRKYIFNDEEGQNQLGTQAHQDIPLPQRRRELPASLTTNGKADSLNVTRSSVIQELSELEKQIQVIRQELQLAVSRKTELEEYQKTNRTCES

Molecular target: GluN1/GluN3A receptors (UniProt Q05586+Q9R1M7)
Experiment: High-throughput Fluo-4 calcium assay (FDSS/μCell) in HEK-293 cells stably expressing GluN1/GluN3A
Format: cell-based, human GluN1-1a, rat GluN3A
Parameters: expressed in transfected cells
Details: pre-incubation before 100 μM glycine, fluorescence signal
Procedure: The HEK-293 cells stably expressing GluN1/GluN3A receptors were seeded at a density of 10,000 cells/well in the 384-well plates, and expression was induced with 1 μg/ml doxycycline for 24–28 h. Then the culture medium was removed, Fluo-4 (Invitrogen) was loaded and the cells were incubated in the 37°C incubator away from light for 1 h ([Gee et al., 2000]). The plates were gently washed twice with Ca^2+-free buffer and then incubated with one of the 2560 compounds (from the Chinese National Compound Library) or DMSO (1% and 0.33%) for 20 min. A fixed concentration of 30 μM and dual concentrations of 10 μM and 30 μM were applied in the primary and secondary screening, respectively. Two replicates were set up for each condition. […] A FDSS/μCell platform (Hamamatsu) was used to measure the fluorescence signals. […] The inhibitory effects of tested compounds were compared by the ratios of fluorescence (F) with (F drug) and without (F control) the compounds. The F control value in these assays represented the value of basal Fluo-4 fluorescence plus glycine-stimulated fluorescence, and the F drug indicated the total Fluo-4 fluorescence after treatment of the drugs. […]

For `C[C@@H](NCc1cc(Br)cc2[nH]c(=O)c(=O)[nH]c12)P(=O)(O)O` [CGP-78608], the saturated concentration was “approximately 500 nM”.
